For the test, the target named is Histamine H2 receptor (Cavia porcellus, UniProt P47747).

The chains behind the UniProt entries cited, without tags or fusion partners.
UniProt P47747, whole entry: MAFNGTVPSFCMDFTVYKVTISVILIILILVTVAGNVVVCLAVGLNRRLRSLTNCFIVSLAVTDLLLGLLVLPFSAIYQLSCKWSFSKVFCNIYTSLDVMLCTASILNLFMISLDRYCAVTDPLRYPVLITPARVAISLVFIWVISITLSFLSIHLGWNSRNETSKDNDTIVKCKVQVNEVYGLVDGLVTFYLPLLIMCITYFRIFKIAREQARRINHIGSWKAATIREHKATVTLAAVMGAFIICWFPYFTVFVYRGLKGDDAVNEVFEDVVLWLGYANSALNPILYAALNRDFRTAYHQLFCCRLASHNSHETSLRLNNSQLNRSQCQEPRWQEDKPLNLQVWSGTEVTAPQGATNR

IC50 data for one compound are collected here from ChEMBL document CHEMBL1649335, “Discovery of {1-[4-(2-{hexahydropyrrolo[3,4-c]pyrrol-2(1H)-yl}-1H-benzimidazol-1-yl)piperidin-1-yl]cyclooctyl}methanol, systemically potent novel non-peptide agonist of nociceptin/orphanin FQ receptor as analgesic for the treatment of neuropathic pain: design, synthesis, and structure-activity …” (Bioorg Med Chem, 2010).

For orientation: IC50 means the concentration at which inhibition is half-maximal. A higher IC50 goes with weaker potency in that assay. In turn, `CN/C(=N/CCSCc1nc[nH]c1C)NC#N` [CIMETIDINE] yielded an IC50 of 1020 nM.
